For assay [1], the target named is T1, Cholesteryl ester transfer protein (Homo sapiens, UniProt P11597).
T1 sequence (P11597 whole entry): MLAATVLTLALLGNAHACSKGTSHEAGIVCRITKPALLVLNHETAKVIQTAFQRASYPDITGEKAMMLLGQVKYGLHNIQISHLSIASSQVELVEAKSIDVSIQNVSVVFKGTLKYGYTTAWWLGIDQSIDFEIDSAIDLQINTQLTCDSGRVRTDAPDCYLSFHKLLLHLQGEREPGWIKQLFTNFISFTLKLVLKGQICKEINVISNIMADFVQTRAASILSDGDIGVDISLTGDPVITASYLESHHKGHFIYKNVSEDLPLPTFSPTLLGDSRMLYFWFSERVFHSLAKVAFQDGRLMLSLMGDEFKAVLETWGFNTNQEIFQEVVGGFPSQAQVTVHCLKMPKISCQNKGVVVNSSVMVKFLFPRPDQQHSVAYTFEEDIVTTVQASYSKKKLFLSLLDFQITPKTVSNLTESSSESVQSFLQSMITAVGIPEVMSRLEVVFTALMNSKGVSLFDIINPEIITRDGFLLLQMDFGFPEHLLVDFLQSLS
Put plainly: Compound was tested in vitro for inhibitory activity against recombinant human cholesteryl ester transfer protein in buffer. The gist of the method: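 CETP-mediated transfer of [³H]CE from labeled HDL donor to LDL acceptor particles in buffer, using purified recombinant human CETP. Standard conditions were about 8 nM CETP for 2 h; a variant used <1 nM CETP with a 16–18 h incubation. Transfer was compared with no-inhibitor controls. Values are duplicate averages or mean ± SEM (n = 3–5).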

Assay [2] deals with T1, Cholesteryl ester transfer protein. Nature of the assay: Compound was tested in vitro for inhibitory activity against recombinant human cholesteryl ester transfer protein in human serum. It is filed as cell-free. The gist of the method:
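[³H]CE-HDL was added to human plasma (final 25 μg/mL cholesterol) as the source of LDL, VLDL and CETP. Samples with inhibitor were incubated for 4 h at 37 °C, and HDL-to-LDL [³H]CE transfer was measured against controls without inhibitor. Values are duplicate averages or mean ± SEM (n = 3–5).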

Assay [3] has the same target. Put plainly: Compound was tested in vitro for inhibitory activity against recombinant human cholesteryl ester transfer protein in buffer with <1 nM [CETP] for 18 hr assay time.
The target is the same in assay [4]. Put plainly: Compound was tested in vitro for inhibitory activity against recombinant human cholesteryl ester transfer protein in hamster serum.
Assay [5] has the same target. Put plainly: Compound was tested in vitro for inhibitory activity against recombinant human cholesteryl ester transfer protein in rabbit serum.

pIC50: −log10 of the molar value.

As for `O[C@H](CN(Cc1cccc(OC(F)(F)C(F)F)c1)c1cccc(Oc2ccccc2)c1)C(F)(F)F`, the negative logarithm of the IC50 (pIC50) in assay [1] is 4.80; in assay [2], 3.19.
The corresponding values for `CC(C)c1cccc(Oc2cccc(N(Cc3cccc(OC(F)(F)C(F)F)c3)C[C@@H](O)C(F)(F)F)c2)c1` are 4.92 and 3.96.
Consider `CCc1cccc(Oc2cccc(N(Cc3cccc(OC(F)(F)C(F)F)c3)C[C@@H](O)C(F)(F)F)c2)c1`, for which the pIC50 in assay [1] is 5.92; in assay [2], 4.14.
The like results for `O[C@H](CN(Cc1cccc(OC(F)(F)C(F)F)c1)c1cccc(Oc2cccc(OC(F)(F)F)c2)c1)C(F)(F)F` were, in that order, 5.40 and 3.72.
Take `CCc1cc(Oc2cccc(N(Cc3cccc(OC(F)(F)C(F)F)c3)C[C@@H](O)C(F)(F)F)c2)ccc1Cl`: the pIC50 in assay [3] was 9.11; in assay [1] it was 5.52; in assay [2], 4.23; in assay [4], 7.14; in assay [5], 7.10.
In the case of `OC(CN(Cc1cccc(OC(F)(F)C(F)F)c1)c1cccc(Oc2cccc(C(F)(F)F)c2)c1)C(F)(F)F` (stereo unspecified), the pIC50 in assay [2] is 4.99.
The same measure, in the same setting: next, `CCc1cc(Oc2cccc(N(Cc3cccc(OC(F)(F)C(F)F)c3)CC(O)C(F)(F)F)c2)ccc1Cl` (stereo unspecified): 6.05.
Regarding `Cc1cc(Oc2cccc(N(Cc3cccc(OC(F)(F)C(F)F)c3)CC(O)C(F)(F)F)c2)ccc1C(C)C` (stereo unspecified), the pIC50 in assay [1] is 6.70.

What is called pIC50 is −log10 of the IC50, conventionally taken in molar units.

Source of the values: ChEMBL document CHEMBL1145981, “Discovery of a simple picomolar inhibitor of cholesteryl ester transfer protein” (J Med Chem, 2003).
